Target: isolated polymerase domain (I1780-V2590) of DNA polymerase theta (Polθ) (Homo sapiens (Human), UniProt O75417)
Assay: biochemical

Sequences of proteins named here, by UniProt entry; tags and fusion partners are left off. Residues count along the entry.
UniProt O75417, 1780-2590: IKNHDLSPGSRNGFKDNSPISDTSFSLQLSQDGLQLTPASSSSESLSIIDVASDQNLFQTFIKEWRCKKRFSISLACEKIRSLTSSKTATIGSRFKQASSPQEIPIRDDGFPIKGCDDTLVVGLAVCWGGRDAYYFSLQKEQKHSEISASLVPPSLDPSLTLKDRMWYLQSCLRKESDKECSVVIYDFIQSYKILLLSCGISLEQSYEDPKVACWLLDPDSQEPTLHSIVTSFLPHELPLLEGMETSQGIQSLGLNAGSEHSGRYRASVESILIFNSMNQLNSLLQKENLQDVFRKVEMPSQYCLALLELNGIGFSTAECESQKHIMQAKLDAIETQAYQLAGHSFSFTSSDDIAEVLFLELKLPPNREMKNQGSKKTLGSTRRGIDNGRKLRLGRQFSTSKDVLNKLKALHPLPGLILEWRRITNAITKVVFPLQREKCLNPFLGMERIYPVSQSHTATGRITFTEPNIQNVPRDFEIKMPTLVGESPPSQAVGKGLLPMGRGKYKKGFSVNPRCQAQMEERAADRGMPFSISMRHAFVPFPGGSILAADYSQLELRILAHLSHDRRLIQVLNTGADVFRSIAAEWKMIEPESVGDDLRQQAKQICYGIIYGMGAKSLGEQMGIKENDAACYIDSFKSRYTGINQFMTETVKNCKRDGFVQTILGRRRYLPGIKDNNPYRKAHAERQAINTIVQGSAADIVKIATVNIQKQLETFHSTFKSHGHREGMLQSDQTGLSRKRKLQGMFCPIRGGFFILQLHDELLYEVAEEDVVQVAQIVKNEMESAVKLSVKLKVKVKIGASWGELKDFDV

IC50	SMILES
6.31 nM	COc1cc(Cl)cc(Cn2c(-c3ccc(OCCC(C)C(=O)O)cc3Cl)nc3c(OC4(C)CC4)ncnc32)c1 (single isomer, unassigned) [Example T446, 4-(3-chloro-4-(9-(3-chloro-5-methoxybenzyl)-6-(1-methylcyclopropoxy)-9H-purin-8-yl)phenoxy)-2-methylbutanoic acid]
6.31 nM	CC1(Oc2ncnc3c2nc(-c2ccc(OCCC(C)(C)C(=O)O)cc2Cl)n3Cc2ccccc2C#N)CC1 [Example U17, 4-(3-chloro-4-(9-(2-cyanobenzyl)-6-(1-methylcyclopropoxy)-9H-purin-8-yl)phenoxy)-2,2-dimethylbutanoic acid]
3.98 nM	CC1(Oc2ncnc3c2nc(-c2cccc(OCCC(=O)O)c2Cl)n3Cc2cc(Cl)ccc2C#N)CC1 [Example U96, 3-(2-chloro-3-(9-(5-chloro-2-cyanobenzyl)-6-(1-methylcyclopropoxy)-9H-purin-8-yl)phenoxy)propanoic acid]
7.94 nM	CC(COc1cccc(-c2nc3c(OC4(C)CC4)ncnc3n2Cc2cc(Cl)ccc2F)c1Cl)CC(=O)O (single isomer, unassigned) [Example U33, 4-(2-chloro-3-(9-(5-chloro-2-fluorobenzyl)-6-(1-methylcyclopropoxy)-9H-purin-8-yl)phenoxy)-3-methylbutanoic acid]
12.6 nM	Cc1ccccc1Cn1c(-c2ccc(OCCC(=O)O)cc2Cl)nc2c(OC3(C)CC3)ncnc21 [Example T168, 3-(3-chloro-4-(9-(2-methylbenzyl)-6-(1-methylcyclopropoxy)-9H-purin-8-yl)phenoxy)propanoic acid]
3.16 nM	Cc1ccc(F)c(Cn2c(-c3ccc(OCCC(C)C(=O)O)cc3Cl)nc3c(OC4(C)CC4)ncnc32)c1 (racemic) [Example T417, 4-(3-chloro-4-(9-(2-fluoro-5-methylbenzyl)-6-(1-methylcyclopropoxy)-9H-purin-8-yl)phenoxy)-2-methylbutanoic acid]
15.8 nM	CC1(Oc2ncnc3c2nc(-c2ccc(CC(N)=O)cc2Cl)n3Cc2ccccc2C#N)CC1 [Example T82, 2-(3-chloro-4-(9-(2-cyanobenzyl)-6-(1-methylcyclopropoxy)-9H-purin-8-yl)phenyl)acetamide]
6.31 nM	COc1cccc(Cn2c(-c3ccc(OCCC(C)C(=O)O)cc3Cl)nc3c(OC4(C)CC4)ncnc32)c1 (single isomer, unassigned) [Example T455, 4-(3-chloro-4-(9-(3-methoxybenzyl)-6-(1-methylcyclopropoxy)-9H-purin-8-yl)phenoxy)-2-methylbutanoic acid]
10 nM	CC1(Oc2ncnc3c2nc(-c2cccc(OC(C)(C)C(=O)O)c2Cl)n3Cc2cccc(Cl)c2)CC1 [Example T158, 2-(2-chloro-3-(9-(3-chlorobenzyl)-6-(1-methylcyclopropoxy)-9H-purin-8-yl)phenoxy)-2-methylpropanoic acid]
10 nM	C[C@@H](Oc1cccc(-c2nc3c(OC4(C)CC4)ncnc3n2Cc2cccc(Cl)c2)c1Cl)C(=O)O [Example T91, (R)-2-(2-chloro-3-(9-(3-chlorobenzyl)-6-(1-methylcyclopropoxy)-9H-purin-8-yl)phenoxy)propanoic acid]

Further lines, the compound ahead of its results:

SMILES	IC50
CC1(Oc2ncnc3c2nc(-c2ccc(OCCc4nn[nH]n4)cc2Cl)n3Cc2cccc(Cl)c2)CC1 [Example T92, 8-(4-(2-(2H-tetrazol-5-yl)ethoxy)-2-chlorophenyl)-9-(3-chlorobenzyl)-6-(1-methylcyclopropoxy)-9H-purine]	7.94 nM
CC1(Oc2ncnc3c2nc(-c2ccc(OC4CNC4)cc2Cl)n3Cc2cc(Cl)ccn2)CC1 [Example T50, 8-(4-(azetidin-3-yloxy)-2-chlorophenyl)-9-((4-chloropyridin-2-yl)methyl)-6-(1-methylcyclopropoxy)-9H-purine]	2.51 nM
Cc1ccnc(Cn2c(-c3ccc(OC[C@H]4CCCN4)cc3Cl)nc3c(OC4(C)CC4)ncnc32)c1 [Example T356, (R)-8-(2-chloro-4-(pyrrolidin-2-ylmethoxy)phenyl)-6-(1-methylcyclopropoxy)-9-((4-methylpyridin-2-yl)methyl)-9H-purine]	3.98 nM
Cc1ccnc(Cn2c(-c3ccc(CCNS(C)(=O)=O)cc3Cl)nc3c(OC4(C)CC4)ncnc32)c1 [Example T143, N-(3-chloro-4-(6-(1-methylcyclopropoxy)-9-((4-methylpyridin-2-yl)methyl)-9H-purin-8-yl)phenethyl)methanesulfonamide]	7.94 nM
Cc1ccnc(Cn2c(-c3ccc(OCCN4CCCC4)cc3Cl)nc3c(OC4(C)CC4)ncnc32)c1 [Example T507, 8-(2-chloro-4-(2-(pyrrolidin-1-yl)ethoxy)phenyl)-6-(1-methylcyclopropoxy)-9-((4-methylpyridin-2-yl)methyl)-9H-purine]	6.31 nM
CC1(Oc2ncnc3c2nc(-c2ccc(OCCCN4CC[C@@H](O)C4)cc2Cl)n3Cc2cc(C(F)(F)F)ccn2)CC1 [Example T554, (R)-1-(3-(3-chloro-4-(6-(1-methylcyclopropoxy)-9-((4-(trifluoromethyl)pyridin-2-yl)methyl)-9H-purin-8-yl)phenoxy)propyl)pyrrolidin-3-ol]	7.94 nM
CN(C)CCCOc1ccc(-c2nc3c(OC4(C)CC4)ncnc3n2Cc2cc(C(F)(F)F)ccn2)c(Cl)c1 [Example T329, 3-(3-chloro-4-(6-(1-methylcyclopropoxy)-9-((4-(trifluoromethyl)pyridin-2-yl)methyl)-9H-purin-8-yl)phenoxy)-N,N-dimethylpropan-1-amine]	2.51 nM
Cc1cc(OCCN2CCN(C)CC2)ncc1-c1nc2cc(OC(C)C)ccc2n1Cc1cccc(Cl)c1 [Example A7, 1-(3-chlorobenzyl)-5-isopropoxy-2-(4-methyl-6-(2-(4-methylpiperazin-1-yl)ethoxy)pyridin-3-yl)-1H-benzo[d]imidazole]	2 nM
Cc1ccnc(Cn2c(-c3ccc(C(=O)N4CC[C@@H](CO)C4)cc3Cl)nc3c(OC4(C)CC4)ncnc32)c1 [Example T464, (R)-(3-chloro-4-(6-(1-methylcyclopropoxy)-9-((4-methylpyridin-2-yl)methyl)-9H-purin-8-yl)phenyl)(3-(hydroxymethyl)pyrrolidin-1-yl)methanone]	15.8 nM
C[C@H]1CNCCN1CCOc1ccc(-c2nc3c(OC4(C)CC4)ncnc3n2Cc2cc(Cl)ccn2)c(Cl)c1 [Example T523, (S)-8-(2-chloro-4-(2-(2-methylpiperazin-1-yl)ethoxy)phenyl)-9-((4-chloropyridin-2-yl)methyl)-6-(1-methylcyclopropoxy)-9H-purine]	3.98 nM
Cc1ccnc(Cn2c(-c3ccc(C4CNC(=O)C4)cc3Cl)nc3c(OC4(C)CC4)ncnc32)c1 (single isomer, unassigned) [Example T175, 4-(3-chloro-4-(6-(1-methylcyclopropoxy)-9-((4-methylpyridin-2-yl)methyl)-9H-purin-8-yl)phenyl)pyrrolidin-2-one]	7.94 nM
Cc1cnc(Cn2c(-c3ccc(O[C@H]4CCNC4)cc3Cl)nc3c(OC4(C)CC4)ncnc32)s1 [Example T70, (S)-2-((8-(2-chloro-4-(pyrrolidin-3-yloxy)phenyl)-6-(1-methylcyclopropoxy)-9H-purin-9-yl)methyl)-5-methylthiazole]	6.31 nM
Cc1cnc(Cn2c(-c3ccc(CC(N)=O)cc3Cl)nc3c(OC4(C)CC4)ncnc32)s1 [Example T4, 2-(3-chloro-4-(6-(1-methylcyclopropoxy)-9-((5-methylthiazol-2-yl)methyl)-9H-purin-8-yl)phenyl)acetamide]	15.8 nM
CC[C@@H](O)CNC(=O)c1ccc(-c2nc3c(OC4(C)CC4)ncnc3n2Cc2cc(C)ccn2)c(Cl)c1 [Example T365, (R)-3-chloro-N-(2-hydroxybutyl)-4-(6-(1-methylcyclopropoxy)-9-((4-methylpyridin-2-yl)methyl)-9H-purin-8-yl)benzamide]	10 nM
Cc1ccnc(Cn2c(-c3ccc(C(N)=O)cc3Cl)nc3c(OC4(C)CC4)ncnc32)c1 [Example T14, 3-chloro-4-(6-(1-methylcyclopropoxy)-9-((4-methylpyridin-2-yl)methyl)-9H-purin-8-yl)benzamide]	6.31 nM
Cc1ccnc(Cn2c(-c3ccc(C(=O)NCC(C)(C)O)cc3Cl)nc3c(OC4(C)CC4)ncnc32)c1 [Example T363, 3-chloro-N-(2-hydroxy-2-methylpropyl)-4-(6-(1-methylcyclopropoxy)-9-((4-methylpyridin-2-yl)methyl)-9H-purin-8-yl)benzamide]	12.6 nM
CC(CCOc1ccc(-c2nc3c(OC4(C)CC4)ncnc3n2Cc2cc(C(F)(F)F)cc(C(F)(F)F)c2)c(Cl)c1)C(=O)O (racemic) [Example T533, 4-(4-(9-(3,5-bis(trifluoromethyl)benzyl)-6-(1-methylcyclopropoxy)-9H-purin-8-yl)-3-chlorophenoxy)-2-methylbutanoic acid]	7.94 nM
Cc1ccnc(Cn2c(-c3ccc(C(=O)N4C[C@@H]5C[C@H]4CO5)cc3Cl)nc3c(OC4(C)CC4)ncnc32)c1 [Example T416, ((1S,4S)-2-oxa-5-azabicyclo[2.2.1]heptan-5-yl)(3-chloro-4-(6-(1-methylcyclopropoxy)-9-((4-methylpyridin-2-yl)methyl)-9H-purin-8-yl)phenyl)methanone]	50.1 nM
CC1(Oc2ncnc3c2nc(-c2ccc(OCCN4CC(O)C4)cc2Cl)n3Cc2cc(Cl)ccn2)CC1 [Example T206, 1-(2-(3-chloro-4-(9-((4-chloropyridin-2-yl)methyl)-6-(1-methylcyclopropoxy)-9H-purin-8-yl)phenoxy)ethyl)azetidin-3-ol]	10 nM
CC1(Oc2ncnc3c2nc(-c2ccc(CC(N)=O)cc2Cl)n3Cc2cc(C(F)(F)F)ccn2)CC1 [Example T36, 2-(3-chloro-4-(6-(1-methylcyclopropoxy)-9-((4-(trifluoromethyl)pyridin-2-yl)methyl)-9H-purin-8-yl)phenyl)acetamide]	7.94 nM
CNCCCOc1ccc(-c2nc3c(OC4(C)CC4)ncnc3n2Cc2ncc(C)s2)c(Cl)c1 [Example T74, 3-(3-chloro-4-(6-(1-methylcyclopropoxy)-9-((5-methylthiazol-2-yl)methyl)-9H-purin-8-yl)phenoxy)-N-methylpropan-1-amine]	5.01 nM

Reference: patent publication US20250195530A1, “POLQ INHIBITORS” (ASTRAZENECA AB, priority 2022, published 2025)
